Patent US9956222B2, “Quinazoline derivative as tyrosine-kinase inhibitor, preparation method therefor and application thereof” (Xuanzhu Pharma Co., Ltd., priority 2011, dated 2018)
pIC50: −log10 of the molar value.

Amino acid sequences for entries named in this document (tags omitted). Residues count along the entry.
UniProt P04626, 23-1255: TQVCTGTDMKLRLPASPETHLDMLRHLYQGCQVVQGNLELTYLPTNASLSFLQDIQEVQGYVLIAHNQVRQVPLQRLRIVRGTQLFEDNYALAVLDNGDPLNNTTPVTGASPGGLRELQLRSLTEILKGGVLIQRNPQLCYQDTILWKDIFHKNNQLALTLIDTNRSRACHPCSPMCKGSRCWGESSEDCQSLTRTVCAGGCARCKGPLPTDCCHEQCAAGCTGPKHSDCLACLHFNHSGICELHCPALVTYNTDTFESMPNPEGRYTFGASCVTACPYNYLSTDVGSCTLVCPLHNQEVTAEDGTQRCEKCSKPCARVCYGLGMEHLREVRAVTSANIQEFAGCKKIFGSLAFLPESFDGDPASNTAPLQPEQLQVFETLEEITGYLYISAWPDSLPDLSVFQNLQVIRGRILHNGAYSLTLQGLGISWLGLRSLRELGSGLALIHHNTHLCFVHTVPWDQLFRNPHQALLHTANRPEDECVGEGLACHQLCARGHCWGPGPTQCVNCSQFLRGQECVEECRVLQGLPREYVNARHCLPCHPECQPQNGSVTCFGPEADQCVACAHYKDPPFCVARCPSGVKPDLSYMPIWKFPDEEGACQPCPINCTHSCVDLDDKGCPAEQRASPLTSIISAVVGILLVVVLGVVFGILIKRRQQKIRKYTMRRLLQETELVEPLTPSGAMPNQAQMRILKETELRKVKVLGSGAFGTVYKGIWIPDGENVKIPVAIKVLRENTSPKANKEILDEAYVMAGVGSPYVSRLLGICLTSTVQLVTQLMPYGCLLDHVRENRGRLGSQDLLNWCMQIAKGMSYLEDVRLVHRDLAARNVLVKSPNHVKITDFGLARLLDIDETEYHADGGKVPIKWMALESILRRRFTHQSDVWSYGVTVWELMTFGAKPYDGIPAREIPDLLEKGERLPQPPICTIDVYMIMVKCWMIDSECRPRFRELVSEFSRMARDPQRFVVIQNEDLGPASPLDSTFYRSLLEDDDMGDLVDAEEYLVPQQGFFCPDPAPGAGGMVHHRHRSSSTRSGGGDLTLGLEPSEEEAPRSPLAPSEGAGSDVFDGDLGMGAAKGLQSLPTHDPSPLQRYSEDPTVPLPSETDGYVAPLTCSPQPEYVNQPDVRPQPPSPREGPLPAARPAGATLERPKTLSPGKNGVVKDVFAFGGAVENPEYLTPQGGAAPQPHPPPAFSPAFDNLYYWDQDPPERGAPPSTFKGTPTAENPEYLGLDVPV
UniProt Q15303, 26-1308: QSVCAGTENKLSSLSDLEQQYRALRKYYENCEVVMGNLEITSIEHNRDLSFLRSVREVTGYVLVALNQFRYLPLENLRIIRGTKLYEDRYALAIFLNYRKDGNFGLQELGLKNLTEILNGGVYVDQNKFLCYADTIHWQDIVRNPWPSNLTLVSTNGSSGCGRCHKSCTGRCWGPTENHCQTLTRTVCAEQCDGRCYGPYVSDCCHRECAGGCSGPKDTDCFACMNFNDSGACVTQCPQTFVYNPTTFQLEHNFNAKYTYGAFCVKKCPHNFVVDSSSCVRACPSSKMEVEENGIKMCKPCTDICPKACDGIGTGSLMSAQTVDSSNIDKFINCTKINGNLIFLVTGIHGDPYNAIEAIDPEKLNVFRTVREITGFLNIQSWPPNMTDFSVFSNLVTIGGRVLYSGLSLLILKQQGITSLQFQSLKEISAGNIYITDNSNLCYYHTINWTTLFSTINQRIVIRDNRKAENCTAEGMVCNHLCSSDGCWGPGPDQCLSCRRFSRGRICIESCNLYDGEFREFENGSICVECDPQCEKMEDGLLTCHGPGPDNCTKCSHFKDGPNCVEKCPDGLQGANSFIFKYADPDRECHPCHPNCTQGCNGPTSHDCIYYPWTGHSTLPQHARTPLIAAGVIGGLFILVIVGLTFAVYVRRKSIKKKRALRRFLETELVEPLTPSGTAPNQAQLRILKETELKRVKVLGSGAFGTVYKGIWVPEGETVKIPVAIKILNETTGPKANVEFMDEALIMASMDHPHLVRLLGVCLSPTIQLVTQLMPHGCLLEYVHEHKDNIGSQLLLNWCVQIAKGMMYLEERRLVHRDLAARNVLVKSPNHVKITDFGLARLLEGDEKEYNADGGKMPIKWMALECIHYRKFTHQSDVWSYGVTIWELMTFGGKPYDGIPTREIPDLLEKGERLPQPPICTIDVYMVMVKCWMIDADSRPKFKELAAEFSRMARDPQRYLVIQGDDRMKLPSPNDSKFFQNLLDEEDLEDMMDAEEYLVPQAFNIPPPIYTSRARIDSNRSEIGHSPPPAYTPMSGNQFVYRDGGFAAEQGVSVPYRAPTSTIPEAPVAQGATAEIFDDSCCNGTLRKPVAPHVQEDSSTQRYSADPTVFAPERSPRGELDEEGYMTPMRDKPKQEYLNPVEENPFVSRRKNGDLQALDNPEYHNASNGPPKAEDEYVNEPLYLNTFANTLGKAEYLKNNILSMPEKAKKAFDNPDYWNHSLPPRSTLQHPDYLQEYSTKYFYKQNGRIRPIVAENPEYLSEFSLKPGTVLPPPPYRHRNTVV

Legend:
[1] = biological target: T1, HER2: human epidermal growth factor receptor 2 (Homo sapiens, UniProt P04626); assay: In vitro enzyme inhibitory activity (Caliper, FAM labeled peptide); type: biochemical; details: HER2 kinase, 28° C., 1 h
T1 construct: purchased Carna

[2] = biological target: T2, HER4: human epidermal growth factor receptor 4 (Homo sapiens, UniProt Q15303); assay: as above; type: biochemical; details: HER4 kinase, 28° C., 1 h
T2 construct: purchased Carna

A pIC50 [1] of 7.96 and a pIC50 [2] of 8.77 were found for `COc1cc2ncnc(Nc3ccc(F)c(Cl)c3)c2cc1NC(=O)/C=C/CN1CCCCC1` [PF-00299804, reference compound] in this work.
